Where a name gives a salt, the structure may show the parent alone.

The chains behind the UniProt entries cited, without tags or fusion partners.
UniProt P13945, whole entry: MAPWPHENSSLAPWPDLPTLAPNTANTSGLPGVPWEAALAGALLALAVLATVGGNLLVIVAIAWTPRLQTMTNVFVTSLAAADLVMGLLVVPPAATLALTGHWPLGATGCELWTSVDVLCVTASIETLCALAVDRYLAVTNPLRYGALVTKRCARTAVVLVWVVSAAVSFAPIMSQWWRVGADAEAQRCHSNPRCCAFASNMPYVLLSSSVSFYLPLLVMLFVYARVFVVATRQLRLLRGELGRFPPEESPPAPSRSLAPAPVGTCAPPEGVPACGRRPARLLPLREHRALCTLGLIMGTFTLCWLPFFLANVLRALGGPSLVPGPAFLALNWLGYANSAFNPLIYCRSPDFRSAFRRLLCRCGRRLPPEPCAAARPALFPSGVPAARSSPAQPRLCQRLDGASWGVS

The term EC50 denotes the concentration that produces a half-maximal response.

One series relates to HEK 293 cells. In words: β3 adrenergic cytotoxicity assay. To be noted: 1 nM to 10 μM; tested form: maleate. On the procedure:
(§1) MN-246 was tested at full-log concentrations ranging from 1 nM to 10 μM for agonism/antagonism in the β3 adrenergic cellular adenylyl cyclase assay in HEK 293 cells and at the same concentrations for potential cytotoxicity in the corresponding β3 adrenergic cytotoxicity assay. Cells were incubated for 20 minutes at 37° C. in Hank's buffered salt solution, with 1 mM MgCl2, 1 mM CaCl2, at a pH of 7.4. Enzyme immunoassay (EIA) was used to measure cAMP accumulation. The compound MN-246 caused agonist-like stimulation of adenylyl cyclase activity with an estimated EC50 of 76 nM.

The target of the next series is β3 adrenergic receptor (Homo sapiens, UniProt P13945). Description: β3 adrenergic cellular adenylyl cyclase assay (cAMP accumulation, EIA). Conditions: read-out: EC50, agonist-like stimulation of adenylyl cyclase activity; HEK 293 cells, 20 minutes at 37° C., 1 nM to 10 μM, cAMP by EIA; estimated; tested form: maleate. On the procedure: as §1

As for `CCOC(=O)COc1cccc([C@@H]2CCC[C@@H](NC[C@H](O)c3cccc(Cl)c3)C2)c1` [Compound A, 3-[(1R,3R)-3-[(2R)-2-(3-chlorophenyl)-2-hydroxyethylamino]cyclohexyl]-phenoxy acetic acid ethyl ester, maleate salt], the cytotoxicity entry with HEK 293 cells is “No cytotoxicity was observed”. The EC50 on β3 adrenergic receptor is 76 nM.
